2 compounds from PubChem BioAssay AID624268 (The Scripps Research Institute Molecular Screening Center, 2012) can be followed below.

For orientation: inhibition means the change of the read-out against control, counted positive when it falls.

The list shows a part of the results, in another mix than the full data. Active and inactive are the calls of the source.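 Rule for the calls: active = inhibition above a per-plate cutoff of the control wells' mean inhibition plus 3 SD (cut at about 5.5% in these data); inactive = the rest.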

This assay has as its system methionyl-tRNA synthetase (Trypanosoma brucei brucei). As to the kind of experiment: inhibition of trypanosome methionyl-tRNA synthetase – biochemical, luminescence, primary screen (AID 624268).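 Note: 0% = DMSO wells median and 100% = median of wells with control inhibitor compound.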 The note with it: purified T. brucei MetRS, ATP depletion, Kinase-Glo luminescence; at 11.9 µM; hits give high values. Put shortly:
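Material: parasite MetRS enzyme / Replication: singlicate, one well per compound / Signal: luminescence of leftover ATP / Schedule: 2 h aminoacylation at 25 °C after 15 min preincubation / Medium: HEPES-MgCl2-KCl buffer plus DTT, spermine, BSA, pyrophosphatase / Doses: 11.9 µM single point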
(In Kinase-Glo more light means more ATP remaining.)
As for `CCC(=O)N(c1ccccc1)C1(COC)CCN(CCn2nnn(CC)c2=O)CC1`, the inhibition is inactive: -0.01%.

Take `CCC(=O)N(c1ccccc1)C1(COC)CCN(CCc2cccs2)CC1`: the inhibition is inactive: -1.73%.
